These results are taken from ChEMBL document CHEMBL4376823, “The discovery of a potent and selective third-generation EGFR kinase inhibitor as a therapy for EGFR L858R/T790M double mutant non-small cell lung cancer” (Eur J Med Chem, 2019).

SMILES strings stand for the structures.

For one assay, the species on record is Homo sapiens. The assay can be described thus: Selectivity index, ratio of EC50 for inhibition of EGFR in human NCI-H292 cells to EC50 for inhibition of EGFR T790M/L858R in human NCI-H1975 cells. The assay is classed as cell-based.
In the case of `C=CC(=O)Nc1cc(Nc2nccc(-c3cn(C)c4ccccc34)n2)c(OC)cc1[S+]([O-])CCN(C)C` (single isomer, unassigned; (-)), the Ratio EC50 was 12.8.

The species named for the next assay is Homo sapiens. The assay is described as follows: Selectivity index, ratio of IC50 for recombinant human GST-tagged EGFR (668 to 1210 residues) expressed in baculovirus expression system to IC50 for recombinant human GST-tagged EGFR T790M/L858R expressed in baculovirus expression system.
Take `C=CC(=O)Nc1cc(Nc2nccc(-c3cn(C)c4ccccc34)n2)c(OC)cc1N1CC[S+]([O-])CC1`: the Ratio IC50 was 5.61.
`C=CC(=O)Nc1cc(Nc2nccc(-c3cn(C)c4ccccc34)n2)c(OC)cc1[S+]([O-])CCN(C)C` (single isomer, unassigned; (-)): the Ratio IC50 worked out at 55.9.
For `C=CC(=O)Nc1cc(Nc2nccc(-c3cn(C)c4ccccc34)n2)c(OC)cc1N1CCSCC1`, the Ratio IC50 was 8.16.
In the case of `C=CC(=O)Nc1cc(Nc2nccc(-c3cn(C)c4ccccc34)n2)c(OC)cc1N(C)CCSC`, the Ratio IC50 was 6.65.
On to `C=CC(=O)Nc1cc(Nc2nccc(-c3cn(C)c4ccccc34)n2)c(OC)cc1[S+]([O-])CCN(C)C` (racemic), for which the Ratio IC50 was 49.8.
In the case of `C=CC(=O)Nc1cc(Nc2nccc(-c3cn(C)c4ccccc34)n2)c(OC)cc1[S+]([O-])CCN(C)C` (stereo in doubt; (+)-4i), the Ratio IC50 stood at 53.9.
Same read-out and setting: in the case of `C=CC(=O)Nc1cc(Nc2nccc(-c3cn(C)c4ccccc34)n2)c(OC)cc1N(C)CC[S+](C)[O-]` (stereo unspecified) it was 16.6.
As to `C=CC(=O)Nc1cc(Nc2nccc(-c3cn(C)c4ccccc34)n2)c(OC)cc1N(C)CCCl`, the Ratio IC50 was 16.2.
In the case of `C=CC(=O)Nc1cc(Nc2nccc(-c3cn(C)c4ccccc34)n2)c(OC)cc1SCCN(C)C`, the Ratio IC50 amounted to 30.2.
In the case of `C=CC(=O)Nc1cc(Nc2nccc(-c3cn(C)c4ccccc34)n2)c(OC)cc1N1CCS(=O)(=O)CC1`, the Ratio IC50 stood at 8.92.
